# Screens deposited in PubChem BioAssay by National Center for Advancing Translational Sciences (NCATS).
# Apoferritin bind: binds horse apoferritin like a general anesthetic; AID 485281; apoferritin/1-aminoanthracene competitive binding, fluorescence; 350,000 tested, 0.074% active; Potency, µM (highest dose often 77.5 µM), for inactives: at the top dose activity change, negative = displacement, actives largely listed as inhibitors; P02791; further: potency means the concentration at half of the fitted maximal effect; on the % scale 0 is the no-effect control and ±100 the full control effect; nearly all actives have a fitted effect of over 20% in size
#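 Horse-spleen apoferritin (10 uM) was mixed with 50% saturated 1-aminoanthracene in PBS, exposed to compounds for 10 min at room temperature, and read for fluorescence (ex 380 nm, em 535 nm). Competitive displacement was fitted with a four-parameter Hill equation.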
# TrxR1 inh: blocks rat thioredoxin reductase 1; 390,000 tested, 1% active; Potency, µM (top dose mostly 114 µM), for the others: at the top dose activity change, negative = inhibition, actives largely listed as inhibitors; recombinant rTrxR1, NADPH fluorescence consumption, selenite substrate; O89049; further: potency means the concentration at half of the fitted maximal effect; on the % scale 0 is the no-effect control and ±100 the full control effect; nearly all actives have a fitted effect of over 65% in size
#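 Rat TrxR1 (90 nM in the dispensed reagent) was pre-reduced with 400 uM NADPH for 5 min at room temperature, then incubated with compound for 15 min. After 400 uM selenite was added, NADPH fluorescence (Ex 340/Em 450 nm) was followed for 8 min.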
# TrxR1 substrate: is turned over as a substrate by rat TrxR1. Potency, µM (highest dose often 114 µM), without a hit: at the highest dose activity change, negative = substrate turnover. 390,000 tested, 0.01% active. purified TrxR1 substrate turnover, NADPH consumption readout. O89049; further: potency means the concentration at half of the fitted maximal effect; on the % scale 0 is the no-effect control and ±100 the full control effect; nearly all actives have a fitted effect of over 50% in size
#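 Rat TrxR1, dispensed at 90 nM, was prereduced with 400 uM NADPH (final) for 5 min at ~22 deg C, then incubated with compound 15 min before 400 uM selenite. A first-read NADPH fluorescence drop versus no-compound background flagged substrates.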
# miR-21 reporter: raises the signal of a miR-21 reporter | HeLa miR-21 FLuc reporter, luciferase, 48 h | Potency, µM (highest dose often 38.3 µM), for inactives: at the highest dose reporter change, positive = more light | 340,000 tested, under 10 active | AID 2288; active = well fitted rising curve with a large enough effect; inconclusive = small, poorly fitted or top-dose-only effect; inactive = no such curve, though single readings can be large or run the other way;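 also: % of control where 0% means no effect; miR-21 action dims this reporter so a rising signal means less miR-21 action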
#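 HeLa cells endogenously expressing miR-21, stably carrying CMV-driven firefly luciferase with a downstream miR-21 binding site, 2000 cells/well. Titrations up to approximately 40 uM, 48 hours; luciferase luminescence read.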
# ClpP mod: qHTS Assay for Activators of ClpP; 340,000 tested, 1.9% active; purified B. subtilis ClpP, FRET peptide cleavage, 20 min; ATP-dependent Clp protease proteolytic subunit (Bacillus subtilis (strain 168)), P80244; Potency, µM (series often up to 57.5 µM), for the others: top-dose activity change, negative = active; active means well fitted falling curve with a large enough effect; inconclusive means small, poorly fitted or top-dose-only effect; inactive means no such curve, though single readings can be large or run the other way; further: potency means the concentration at half of the fitted maximal effect; the source files actives as falling curves though it sought activators and does not explain the sign; nearly all actives have a fitted effect of over 65% in size
#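 ClpP 10 microg/mL final, pH 8 Tris/KCl buffer with BSA, glycerol, Tween-20; compound pinned in; FRET-FV substrate; RT 20 min; Ex320/Em430; ΔFRET vs ADEP 5.8 microM, DMSO, no enzyme.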
# * hit, by the source's call; ? = inconclusive; / = no result given; [ ] = remark or other dose. Most compounds without a hit are left out; they make up all but 2.5% or so of the library. Unless noted, the call rests on the fitted dose curve; in most records, active means well fitted curve in the direction sought with a large enough effect; inconclusive means small, poorly fitted or top-dose-only effect, or another doubt; inactive means no such curve, though single readings can be large; an effect the other way counts as inactive or inconclusive.
entry	mol	Apoferritin bind	TrxR1 inh	TrxR1 substrate	miR-21 reporter	ClpP mod
1	CCCN1C(C(=O)c2ccccc2)=C(OC(=O)COc2ccc(C)cc2)c2ccccc2S1(=O)=O	-2.7%	?	-1.8%	?	1.5%
2	CCCN1C(C(=O)c2ccccc2)=C(OC(=O)COc2ccccc2)c2ccccc2S1(=O)=O	-5.4%	?	-0.2%	?	-2.1%
3	CCN1C(C(=O)c2ccccc2)=C(OC(=O)COc2ccc(OC)cc2)c2ccccc2S1(=O)=O	-14.1%	12.6µM*	4.7%	?	1.8%
4	CC(=O)Nc1ccc(/C=C/c2nc3ccccc3s2)cc1	/	7.5%	-5.1%	/	2.2%
5	CC(=O)c1cc(O)c2ccccc2c1O	-7.2%	31.6µM*	-4.5%	-48.1%	1.9%
6	CCOc1ccc(NS(=O)(=O)c2ccc3c(c2)NC(=O)CCS3)cc1	-16.1%	14.4%[57.1 µM]	-6.8%[57.1 µM]	13.8%	-0.5%
7	CC/C(=N\NC(=O)CSCc1ccc(Cl)cc1)c1ccc2c(c1)OCCO2	17.8µM*	-6.5%[57.1 µM]	-6.9%	-13.2%	-2.0%
8	Cc1ccc2nc(COc3ccccc3NC(=O)COc3ccccc3Cl)cc(=O)n2c1	52.1%	18.4%[57.1 µM]	0.2%[57.1 µM]	-3.4%	-7.7%
9	CCCC(=O)Nc1ccccc1OCc1cc(=O)n2cc(C)ccc2n1	1.3%	25.4%[57.1 µM]	8.9%[57.1 µM]	2.5%	28.2µM*
10	Cc1ccc2c(=O)cc(C(=O)Nc3nc4ccc(Cl)cc4s3)oc2c1	-3.5%	10.9%	2.1%	-7.7%	3.0%
11	CCC(c1nnnn1C(C)(C)CC)N(CCCN1CCOCC1)Cc1cc2cccc(C)c2[nH]c1=O (configuration not stated)	25.3%	35.5µM*	14.9%	0.1%	?
12	CCC(C)(C)n1nnnc1C(C(C)C)N(CCN1CCOCC1)Cc1cc2cccc(C)c2[nH]c1=O (configuration not stated)	-6.8%	?	5.2%	-0.2%	?

# Reprinted, entries 9 to 12
entry	mol	Apoferritin bind	TrxR1 inh	TrxR1 substrate	miR-21 reporter	ClpP mod
9	CCCC(=O)Nc1ccccc1OCc1cc(=O)n2cc(C)ccc2n1	1.3%	25.4%[57.1 µM]	8.9%[57.1 µM]	2.5%	28.2µM*
10	Cc1ccc2c(=O)cc(C(=O)Nc3nc4ccc(Cl)cc4s3)oc2c1	-3.5%	10.9%	2.1%	-7.7%	3.0%
11	CCC(c1nnnn1C(C)(C)CC)N(CCCN1CCOCC1)Cc1cc2cccc(C)c2[nH]c1=O (configuration not stated)	25.3%	35.5µM*	14.9%	0.1%	?
12	CCC(C)(C)n1nnnc1C(C(C)C)N(CCN1CCOCC1)Cc1cc2cccc(C)c2[nH]c1=O (configuration not stated)	-6.8%	?	5.2%	-0.2%	?

# More compounds.
entry	mol	Apoferritin bind	TrxR1 inh	TrxR1 substrate	miR-21 reporter	ClpP mod
13	O=C(NCCc1csc2nc(-c3cccc(F)c3)nn12)c1ccc(Br)o1	-15.5%	-2.4%[57.1 µM]	-1.6%[57.1 µM]	6.5%	0.0%
14	O=C(NC(=S)Nc1nc(-c2cccc([N+](=O)[O-])c2)cs1)c1cc(Cl)ccc1Cl	-4.6%	28.2µM*	3.0%[57.1 µM]	-6.8%	-4.5%
15	O=C(NC(=S)Nc1nc(-c2cccc([N+](=O)[O-])c2)cs1)c1ccccc1Cl	-3.0%	13.2%[57.1 µM]	2.1%[57.1 µM]	-2.7%	/
16	O=C(Nc1ccncc1)c1ccc2ccccc2c1	-13.3%	18.7%[57.1 µM]	5.9%[57.1 µM]	-29.3%	22.4µM*
17	CCc1cccc(-n2c(=O)c3cccnc3n2CC(=O)Nc2ccc(F)c(C)c2)c1	61.4%	13.8%[57.1 µM]	33.0%[57.1 µM]	-3.3%	4.1%
18	CC1(c2nnc(Cc3ccccc3)o2)CC(c2ccc(C#N)cc2)=NO1 (configuration not stated)	/	15.8µM*	6.0%	/	-1.7%
19	CCOc1ccc(C2CC(=O)n3nc(-c4ccc(C)cc4)nc3S2)cc1 (configuration not stated)	1.7%	34.1%	4.5%	2.6%	-2.6%
20	COc1ccc(-c2nc3n(n2)C(=O)CC(c2ccco2)S3)cc1 (configuration not stated)	-2.8%	14.1µM*	3.3%	-16.1%	-1.3%
21	Cc1ccc(-n2ncc3c(NCCCN(C)C)ncnc32)cc1Cl	2.2%	3.1%[57.1 µM]	2.7%[57.1 µM]	0.3%	4.2%
22	CCOC(=O)CSc1nc2sc3c(c2c(=O)n1C1CCCCC1)CCN(C)C3	-24.8%	-18.7%	16.9%	-11.1%	28.2µM*
23	CCOC(=O)CSc1nc2sc3c(c2c(=O)n1-c1ccc(OCC)cc1)CCN(C)C3	-9.9%	7.2%	0.2%	0.3%	-22.0%
24	O=C(Cn1ncc2c3ccccc3n(Cc3cccc(Cl)c3)c2c1=O)N1CCCCCC1	-9.2%	3.2%	4.5%	12.2%	?
25	O=C(COC(=O)c1ccccc1OCCOc1ccccc1)Nc1ccc(Br)cc1	/	7.9%	3.0%	/	-6.0%
26	Cc1ccc(-n2ncc(C(=O)N3CCN(C(=O)c4ccco4)CC3)c2C2CCN(C(=O)OC(C)(C)C)CC2)cc1C	-4.5%	28.2µM*	-8.1%	0.6%	-1.0%
27	CCCN(CCC)C(=O)c1nn(C)c2c1CSc1ccc(C)cc1-2	0.2%	7.5%[57.1 µM]	-4.2%[57.1 µM]	-2.1%	1.4%
